Earlier results in article PMC9373814, “3p-C-NETA: A versatile and effective chelator for development of Al^18F-labeled and therapeutic radiopharmaceuticals” (Theranostics, 2022).

Details: rat plasma, 30 min p.i.; cited from earlier work

[^18F]AlF-NOTA-Octreotide
intact tracer in plasma: > 98%
